Test results taken from PubChem BioAssay AID652083 (The Scripps Research Institute Molecular Screening Center, 2013).
The source made the active and inactive calls.

By UniProt entry, the sequences of proteins in these tests, tags left out. Where a name states a change or a piece, a line headed by the entry shows the natural chain unless it says otherwise.
UniProt P08908, whole entry, looked up: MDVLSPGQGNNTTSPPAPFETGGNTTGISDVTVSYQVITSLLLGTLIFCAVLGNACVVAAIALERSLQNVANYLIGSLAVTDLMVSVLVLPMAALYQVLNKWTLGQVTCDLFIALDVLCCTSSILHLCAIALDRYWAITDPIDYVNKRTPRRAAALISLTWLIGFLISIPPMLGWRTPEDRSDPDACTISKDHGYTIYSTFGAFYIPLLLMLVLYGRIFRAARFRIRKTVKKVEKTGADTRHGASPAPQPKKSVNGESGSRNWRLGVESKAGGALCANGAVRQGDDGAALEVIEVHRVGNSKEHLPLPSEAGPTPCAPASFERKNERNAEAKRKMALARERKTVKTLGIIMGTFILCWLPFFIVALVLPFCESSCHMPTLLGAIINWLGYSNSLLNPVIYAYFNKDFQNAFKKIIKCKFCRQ
UniProt P41595, whole entry, looked up: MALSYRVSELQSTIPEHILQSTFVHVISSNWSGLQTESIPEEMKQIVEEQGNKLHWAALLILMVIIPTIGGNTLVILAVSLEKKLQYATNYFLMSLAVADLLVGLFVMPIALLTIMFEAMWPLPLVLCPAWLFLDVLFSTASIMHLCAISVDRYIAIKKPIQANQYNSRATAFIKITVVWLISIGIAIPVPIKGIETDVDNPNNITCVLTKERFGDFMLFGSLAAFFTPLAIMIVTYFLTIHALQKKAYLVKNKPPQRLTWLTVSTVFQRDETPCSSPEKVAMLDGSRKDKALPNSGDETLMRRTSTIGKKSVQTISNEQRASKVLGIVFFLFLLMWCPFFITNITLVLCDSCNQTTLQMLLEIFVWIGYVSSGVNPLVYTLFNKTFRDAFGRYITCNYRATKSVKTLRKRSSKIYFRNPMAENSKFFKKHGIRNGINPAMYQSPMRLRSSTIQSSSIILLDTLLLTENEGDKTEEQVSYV
UniProt P47898, whole entry, looked up: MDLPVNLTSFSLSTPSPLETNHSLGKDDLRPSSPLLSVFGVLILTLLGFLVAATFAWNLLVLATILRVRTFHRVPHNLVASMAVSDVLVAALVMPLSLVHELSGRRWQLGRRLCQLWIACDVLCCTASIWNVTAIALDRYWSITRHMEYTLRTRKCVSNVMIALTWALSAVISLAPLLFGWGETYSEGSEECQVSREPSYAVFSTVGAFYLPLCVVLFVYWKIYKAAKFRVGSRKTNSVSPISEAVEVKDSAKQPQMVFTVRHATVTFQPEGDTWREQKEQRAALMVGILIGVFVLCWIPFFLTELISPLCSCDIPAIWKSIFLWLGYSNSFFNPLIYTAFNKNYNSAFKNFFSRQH
UniProt P21728, whole entry, looked up: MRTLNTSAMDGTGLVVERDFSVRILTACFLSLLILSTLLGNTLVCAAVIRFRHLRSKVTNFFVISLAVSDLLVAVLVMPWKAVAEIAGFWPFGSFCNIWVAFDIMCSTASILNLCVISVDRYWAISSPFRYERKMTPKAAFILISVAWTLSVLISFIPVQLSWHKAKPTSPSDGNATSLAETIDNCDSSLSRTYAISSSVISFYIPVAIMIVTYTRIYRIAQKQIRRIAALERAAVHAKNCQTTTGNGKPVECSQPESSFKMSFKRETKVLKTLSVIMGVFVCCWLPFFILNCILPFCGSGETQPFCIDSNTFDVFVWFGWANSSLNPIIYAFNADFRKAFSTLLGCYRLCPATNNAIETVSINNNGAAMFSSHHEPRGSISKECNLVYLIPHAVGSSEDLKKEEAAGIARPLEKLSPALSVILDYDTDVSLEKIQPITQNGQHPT
UniProt P41143, whole entry, looked up: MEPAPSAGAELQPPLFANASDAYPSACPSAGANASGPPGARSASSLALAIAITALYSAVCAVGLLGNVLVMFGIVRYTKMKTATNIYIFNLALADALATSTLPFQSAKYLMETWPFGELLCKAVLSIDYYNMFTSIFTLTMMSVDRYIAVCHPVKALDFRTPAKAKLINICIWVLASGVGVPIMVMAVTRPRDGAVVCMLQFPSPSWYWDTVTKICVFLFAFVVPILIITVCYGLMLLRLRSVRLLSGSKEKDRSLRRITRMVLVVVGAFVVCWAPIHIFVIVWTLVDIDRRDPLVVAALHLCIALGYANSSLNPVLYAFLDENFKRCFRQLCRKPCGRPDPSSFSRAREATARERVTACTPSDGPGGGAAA
UniProt P32245, whole entry, looked up: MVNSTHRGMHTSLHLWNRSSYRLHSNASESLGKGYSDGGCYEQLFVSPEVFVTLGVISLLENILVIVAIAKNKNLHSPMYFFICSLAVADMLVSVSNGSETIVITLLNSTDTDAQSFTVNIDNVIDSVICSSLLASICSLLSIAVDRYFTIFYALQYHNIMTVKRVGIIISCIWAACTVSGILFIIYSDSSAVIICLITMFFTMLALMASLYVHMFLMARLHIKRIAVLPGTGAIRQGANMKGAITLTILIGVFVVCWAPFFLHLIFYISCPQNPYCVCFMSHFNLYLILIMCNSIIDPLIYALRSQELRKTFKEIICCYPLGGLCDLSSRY
UniProt P11229: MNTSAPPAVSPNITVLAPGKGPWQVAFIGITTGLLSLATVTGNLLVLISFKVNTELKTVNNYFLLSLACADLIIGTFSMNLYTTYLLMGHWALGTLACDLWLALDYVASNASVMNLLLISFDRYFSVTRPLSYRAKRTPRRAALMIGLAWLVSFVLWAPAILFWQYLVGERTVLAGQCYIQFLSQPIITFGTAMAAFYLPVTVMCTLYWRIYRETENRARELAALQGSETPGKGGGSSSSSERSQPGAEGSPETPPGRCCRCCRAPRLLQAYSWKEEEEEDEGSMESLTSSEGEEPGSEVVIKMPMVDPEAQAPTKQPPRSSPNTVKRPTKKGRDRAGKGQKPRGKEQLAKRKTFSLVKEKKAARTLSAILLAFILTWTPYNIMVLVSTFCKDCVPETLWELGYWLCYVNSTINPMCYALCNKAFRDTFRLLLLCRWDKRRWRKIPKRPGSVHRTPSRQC
UniProt P08172, whole entry, looked up: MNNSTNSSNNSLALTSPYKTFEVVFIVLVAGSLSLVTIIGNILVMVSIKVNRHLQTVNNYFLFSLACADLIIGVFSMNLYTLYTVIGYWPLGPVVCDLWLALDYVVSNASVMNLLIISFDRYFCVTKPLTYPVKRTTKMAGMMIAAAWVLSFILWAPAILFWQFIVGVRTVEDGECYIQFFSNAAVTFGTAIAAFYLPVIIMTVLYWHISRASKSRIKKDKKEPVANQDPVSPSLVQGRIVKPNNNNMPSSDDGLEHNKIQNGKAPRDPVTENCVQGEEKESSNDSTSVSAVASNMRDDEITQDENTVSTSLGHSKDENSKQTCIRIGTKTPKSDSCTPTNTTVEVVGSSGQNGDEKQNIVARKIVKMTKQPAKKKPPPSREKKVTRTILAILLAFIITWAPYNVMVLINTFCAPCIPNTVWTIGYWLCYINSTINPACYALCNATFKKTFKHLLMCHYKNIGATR
UniProt P20309, whole entry, looked up: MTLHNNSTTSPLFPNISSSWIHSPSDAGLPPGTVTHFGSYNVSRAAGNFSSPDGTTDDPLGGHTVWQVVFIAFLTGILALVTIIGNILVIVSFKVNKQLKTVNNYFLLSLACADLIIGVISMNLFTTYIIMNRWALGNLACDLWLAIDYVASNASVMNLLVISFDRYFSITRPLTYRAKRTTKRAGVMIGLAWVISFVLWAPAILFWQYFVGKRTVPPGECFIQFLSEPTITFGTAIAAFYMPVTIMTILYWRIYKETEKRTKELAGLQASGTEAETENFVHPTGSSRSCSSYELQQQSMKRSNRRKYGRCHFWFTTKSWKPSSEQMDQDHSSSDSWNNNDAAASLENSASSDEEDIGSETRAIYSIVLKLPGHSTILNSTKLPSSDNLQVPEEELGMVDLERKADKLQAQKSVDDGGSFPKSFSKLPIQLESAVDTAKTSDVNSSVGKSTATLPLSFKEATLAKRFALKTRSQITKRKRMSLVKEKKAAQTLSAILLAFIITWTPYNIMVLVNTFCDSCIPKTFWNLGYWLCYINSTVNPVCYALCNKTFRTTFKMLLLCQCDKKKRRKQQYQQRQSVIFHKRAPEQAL
UniProt P25929, whole entry, looked up: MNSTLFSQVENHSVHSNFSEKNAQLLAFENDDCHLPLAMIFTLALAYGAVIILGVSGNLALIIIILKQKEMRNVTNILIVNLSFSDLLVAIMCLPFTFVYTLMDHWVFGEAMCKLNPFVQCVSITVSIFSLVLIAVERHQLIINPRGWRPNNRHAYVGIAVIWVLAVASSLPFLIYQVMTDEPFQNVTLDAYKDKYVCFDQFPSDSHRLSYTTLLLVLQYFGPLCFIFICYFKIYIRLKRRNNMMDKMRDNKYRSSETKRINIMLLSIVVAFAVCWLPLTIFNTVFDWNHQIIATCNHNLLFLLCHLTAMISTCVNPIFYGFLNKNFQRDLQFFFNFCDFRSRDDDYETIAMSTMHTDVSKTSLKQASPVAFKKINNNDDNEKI
UniProt P49146, whole entry, looked up: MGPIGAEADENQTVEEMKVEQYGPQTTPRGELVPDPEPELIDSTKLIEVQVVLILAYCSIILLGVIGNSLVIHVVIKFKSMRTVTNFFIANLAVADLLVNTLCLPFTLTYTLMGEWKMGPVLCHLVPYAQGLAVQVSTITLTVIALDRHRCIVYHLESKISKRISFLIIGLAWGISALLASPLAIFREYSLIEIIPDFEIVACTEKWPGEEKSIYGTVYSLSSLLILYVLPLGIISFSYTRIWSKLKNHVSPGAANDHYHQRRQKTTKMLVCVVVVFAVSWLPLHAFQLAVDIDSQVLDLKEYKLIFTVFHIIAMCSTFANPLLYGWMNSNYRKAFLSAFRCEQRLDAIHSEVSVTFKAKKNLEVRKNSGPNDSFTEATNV
UniProt P30989, whole entry, looked up: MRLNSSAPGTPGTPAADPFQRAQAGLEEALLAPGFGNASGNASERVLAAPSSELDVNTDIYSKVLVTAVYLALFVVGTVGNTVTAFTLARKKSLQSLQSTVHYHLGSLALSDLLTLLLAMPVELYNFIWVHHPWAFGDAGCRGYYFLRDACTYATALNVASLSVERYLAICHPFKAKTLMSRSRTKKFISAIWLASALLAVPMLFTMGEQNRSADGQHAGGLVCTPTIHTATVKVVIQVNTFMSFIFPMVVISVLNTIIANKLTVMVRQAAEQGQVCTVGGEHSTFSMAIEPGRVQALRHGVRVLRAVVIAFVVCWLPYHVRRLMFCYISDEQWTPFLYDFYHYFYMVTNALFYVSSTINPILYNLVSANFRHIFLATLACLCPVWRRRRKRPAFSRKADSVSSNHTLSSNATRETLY
UniProt P37288, whole entry, looked up: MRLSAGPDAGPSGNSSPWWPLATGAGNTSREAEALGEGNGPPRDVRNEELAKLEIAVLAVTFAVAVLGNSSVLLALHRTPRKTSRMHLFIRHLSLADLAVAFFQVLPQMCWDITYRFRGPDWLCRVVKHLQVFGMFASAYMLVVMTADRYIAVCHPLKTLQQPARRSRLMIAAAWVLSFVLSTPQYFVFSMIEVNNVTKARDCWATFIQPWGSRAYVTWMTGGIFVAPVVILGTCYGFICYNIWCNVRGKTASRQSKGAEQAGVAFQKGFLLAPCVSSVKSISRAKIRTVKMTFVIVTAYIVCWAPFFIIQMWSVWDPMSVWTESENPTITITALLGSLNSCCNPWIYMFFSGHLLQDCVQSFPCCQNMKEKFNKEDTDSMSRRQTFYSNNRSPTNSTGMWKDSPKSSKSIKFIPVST

Columns and labels:
Experiment in all cases: PubChem AID 652083
[1] = biological target: 5-hydroxytryptamine receptor 1A (Homo sapiens) (UniProt P08908); details: CEREP radioligand binding panel, % inhibition at 10 uM, Serotonin 5-HT1a, hits give high values
[2] = biological target: 5-hydroxytryptamine receptor 2B (Homo sapiens) (UniProt P41595); details: CEREP radioligand binding panel, % inhibition at 10 uM, Serotonin 5-HT2B, hits give high values
[3] = biological target: 5-hydroxytryptamine receptor 5A (Homo sapiens) (UniProt P47898); details: CEREP radioligand binding panel, % inhibition at 10 uM, Serotonin 5-HT5A, hits give high values
[4] = system: Adenosine A1; details: CEREP radioligand binding panel, % inhibition at 10 uM, hits give high values
[5] = system: Adenosine A2A; details: CEREP radioligand binding panel, % inhibition at 10 uM, hits give high values
[6] = system: Adenosine A3; details: CEREP radioligand binding panel, % inhibition at 10 uM, hits give high values
[7] = system: Adrenergic beta 1; details: CEREP radioligand binding panel, % inhibition at 10 uM, hits give high values
[8] = system: Angiotensin receptor 1; details: CEREP radioligand binding panel, % inhibition at 10 uM, hits give high values
[9] = biological target: Beta-2 adrenergic receptor (Homo sapiens) (UniProt P07550); details: CEREP radioligand binding panel, % inhibition at 10 uM, Adrenergic beta 2, hits give high values
[10] = system: Bradykinin receptor 2; details: CEREP radioligand binding panel, % inhibition at 10 uM, hits give high values
[11] = system: CCR1; details: CEREP radioligand binding panel, % inhibition at 10 uM, hits give high values
[12] = system: CXCR2 (IL-8B); details: CEREP radioligand binding panel, % inhibition at 10 uM, hits give high values
[13] = system: Ca2+ channel (L, verapamil site) (phenylalkylamine); details: CEREP radioligand binding panel, % inhibition at 10 uM, hits give high values
[14] = system: Cannabinoid CB1; details: CEREP radioligand binding panel, % inhibition at 10 uM, hits give high values
[15] = system: Cholecystokinin A receptor; details: CEREP radioligand binding panel, % inhibition at 10 uM, hits give high values
[16] = biological target: D(1A) dopamine receptor (Homo sapiens) (UniProt P21728); details: CEREP radioligand binding panel, % inhibition at 10 uM, Dopamine D1, hits give high values
[17] = biological target: Delta-type opioid receptor (Homo sapiens) (UniProt P41143); details: CEREP radioligand binding panel, % inhibition at 10 uM, delta 2 (DOP), hits give high values
[18] = system: Dopamine D2S; details: CEREP radioligand binding panel, % inhibition at 10 uM, hits give high values
[19] = system: Endothelin receptor A; details: CEREP radioligand binding panel, % inhibition at 10 uM, hits give high values
[20] = system: Galanin receptor 2; details: CEREP radioligand binding panel, % inhibition at 10 uM, hits give high values
[21] = system: Histamine H1; details: CEREP radioligand binding panel, % inhibition at 10 uM, hits give high values
[22] = system: Histamine H2; details: CEREP radioligand binding panel, % inhibition at 10 uM, hits give high values
[23] = biological target: Melanocortin receptor 4 (Homo sapiens) (UniProt P32245); details: CEREP radioligand binding panel, % inhibition at 10 uM, Melanocortin receptor MC4, hits give high values
[24] = system: Melatonin receptor MT1; details: CEREP radioligand binding panel, % inhibition at 10 uM, hits give high values
[25] = biological target: Muscarinic acetylcholine receptor M1 (Homo sapiens) (UniProt P11229); details: CEREP radioligand binding panel, % inhibition at 10 uM, hits give high values
[26] = biological target: Muscarinic acetylcholine receptor M2 (Homo sapiens) (UniProt P08172); details: CEREP radioligand binding panel, % inhibition at 10 uM, hits give high values
[27] = biological target: Muscarinic acetylcholine receptor M3 (Homo sapiens) (UniProt P20309); details: CEREP radioligand binding panel, % inhibition at 10 uM, hits give high values
[28] = system: NOP (ORL1); details: CEREP radioligand binding panel, % inhibition at 10 uM, hits give high values
[29] = biological target: Neuropeptide Y receptor type 1 (Homo sapiens) (UniProt P25929); details: CEREP radioligand binding panel, % inhibition at 10 uM, Neuropeptide receptor Y1, hits give high values
[30] = biological target: Neuropeptide Y receptor type 2 (Homo sapiens) (UniProt P49146); details: CEREP radioligand binding panel, % inhibition at 10 uM, Neuropeptide receptor Y2, hits give high values
[31] = biological target: Neurotensin receptor type 1 (Homo sapiens) (UniProt P30989); details: CEREP radioligand binding panel, % inhibition at 10 uM, Neurotensin receptor 1, hits give high values
[32] = system: Norepinephrine transporter; details: CEREP radioligand binding panel, % inhibition at 10 uM, hits give high values
[33] = system: Serotonin 5-HT1b; details: CEREP radioligand binding panel, % inhibition at 10 uM, hits give high values
[34] = system: Serotonin 5-HT2A; details: CEREP radioligand binding panel, % inhibition at 10 uM, hits give high values
[35] = system: Serotonin 5-HT3; details: CEREP radioligand binding panel, % inhibition at 10 uM, hits give high values
[36] = system: Serotonin 5-HT6; details: CEREP radioligand binding panel, % inhibition at 10 uM, hits give high values
[37] = system: Serotonin 5-HT7; details: CEREP radioligand binding panel, % inhibition at 10 uM, hits give high values
[38] = system: Somatostatin sst (non-selective); details: CEREP radioligand binding panel, % inhibition at 10 uM, hits give high values
[39] = system: Tachykinin receptor NK2; details: CEREP radioligand binding panel, % inhibition at 10 uM, hits give high values
[40] = system: Tachykinin receptor NK3; details: CEREP radioligand binding panel, % inhibition at 10 uM, hits give high values
[41] = system: Vasoactive intestinal peptide receptor 1; details: CEREP radioligand binding panel, % inhibition at 10 uM, hits give high values
[42] = biological target: Vasopressin V1a receptor (Homo sapiens) (UniProt P37288); details: CEREP radioligand binding panel, % inhibition at 10 uM, Arginine vasopressin receptor 1A, hits give high values
[43] = system: kappa (KOP); details: CEREP radioligand binding panel, % inhibition at 10 uM, hits give high values
[44] = system: mu (MOP); details: CEREP radioligand binding panel, % inhibition at 10 uM, hits give high values

SMILES: COC(=O)c1cc(Br)cnc1N1CCC(NC2CCCCC2)C(O)C1 (centres undefined)
- inhibition of specific binding [1]: inactive: 40%
- inhibition of specific binding [2]: inactive: 24%
- inhibition of specific binding [3]: inactive: 0%
- inhibition of specific binding [4]: inactive: 3%
- inhibition of specific binding [5]: inactive: 19%
- inhibition of specific binding [6]: inactive: -1%
- inhibition of specific binding [7]: inactive: -1%
- inhibition of specific binding [8]: inactive: -2%
- inhibition of specific binding [9]: inactive: 43%
- inhibition of specific binding [10]: inactive: -11%
- inhibition of specific binding [11]: inactive: 7%
- inhibition of specific binding [12]: inactive: -3%
- inhibition of specific binding [13]: inactive: 32%
- inhibition of specific binding [14]: inactive: 0%
- inhibition of specific binding [15]: -54%
- inhibition of specific binding [16]: inactive: 7%
- inhibition of specific binding [17]: inactive: 31%
- inhibition of specific binding [18]: inactive: 38%
- inhibition of specific binding [19]: inactive: -7%
- inhibition of specific binding [20]: inactive: -13%
- inhibition of specific binding [21]: inactive: 3%
- inhibition of specific binding [22]: inactive: -7%
- inhibition of specific binding [23]: inactive: -1%
- inhibition of specific binding [24]: inactive: -13%
- inhibition of specific binding [25]: inactive: 5%
- inhibition of specific binding [26]: inactive: -1%
- inhibition of specific binding [27]: inactive: 11%
- inhibition of specific binding [28]: 71%
- inhibition of specific binding [29]: inactive: -11%
- inhibition of specific binding [30]: inactive: -7%
- inhibition of specific binding [31]: inactive: -12%
- inhibition of specific binding [32]: inactive: 16%
- inhibition of specific binding [33]: inactive: -11%
- inhibition of specific binding [34]: inactive: -4%
- inhibition of specific binding [35]: inactive: 1%
- inhibition of specific binding [36]: inactive: 1%
- inhibition of specific binding [37]: inactive: -7%
- inhibition of specific binding [38]: inactive: -17%
- inhibition of specific binding [39]: inactive: 2%
- inhibition of specific binding [40]: inactive: 11%
- inhibition of specific binding [41]: inactive: 10%
- inhibition of specific binding [42]: inactive: 1%
- inhibition of specific binding [43]: 84%
- inhibition of specific binding [44]: 97%
